Reference: PubChem BioAssay AID463116 (University of Pittsburgh Molecular Library Screening Center, 2010)
The entries are a selection whose mix differs from that of the whole data set. Inconclusive results are not listed. The source made the active and inactive calls.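 The calls were made as follows: active = inhibition of receptor movement into the nucleus at or above a set limit in both runs, with normal cell brightness and cell count; inconclusive = limit reached in only one run, brightness and count normal; inactive = the rest.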

Assay: blockers of dexamethasone-driven GR-EGFP nuclear import – imaging, high-content imaging, GR-EGFP cells, confirmation (AID 463116);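 also: dexamethasone at 1 µM final in well for 30 min; nuclear minus cytoplasmic GR-EGFP mean intensity difference in channel 2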
Conditions: 3617.4 GR-EGFP nuclear translocation imaging, dexamethasone-induced; at 20 µM; stronger effect = higher value

SMILES | inhibition
O=[N+]([O-])c1cc([N+](=O)[O-])c(-n2nnc3ccccc32)c([N+](=O)[O-])c1 | active: 59.3%
